This is a selection; strong and weak results do not stand in their true shares. The source made the active and inactive calls.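 Rule for the calls: active = inhibition above the campaign mean of all tested compounds plus 3 SD (cut at about 14% in these data); inactive = the rest.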
molecular target: Serine hydrolase RBBP9 (Homo sapiens) (UniProt O75884); test: blockers of RBBP9 serine hydrolase labeling – biochemical, fluorescence polarization, FP-Rh probe, HTS, primary screen (AID 1515); conditions: recombinant RBBP9, FP-Rh probe fluorescence polarization; at 7.94 µM; stronger effect = higher value;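 note: plate controls were DMSO wells with RBBP9 for no effect and wells lacking RBBP9 protein for full effect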

Chains of the proteins cited; added tags and fusions are not shown. Lines headed by an entry give the natural chain unless they say otherwise; changes in a name come on top.
UniProt O75884: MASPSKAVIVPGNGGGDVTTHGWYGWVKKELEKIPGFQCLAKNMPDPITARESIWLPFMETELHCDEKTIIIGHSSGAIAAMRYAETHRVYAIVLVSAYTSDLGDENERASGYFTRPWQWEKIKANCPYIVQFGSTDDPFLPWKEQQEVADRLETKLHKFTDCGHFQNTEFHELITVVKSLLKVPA

SMILES	inhibition
O=[As](O)(c1ccccc1Br)c1ccccc1Br	inactive: -6.38%
CC(C)(C)C(=O)NC(Sc1ncccn1)C(Cl)(Cl)Cl (stereo not drawn)	inactive: -0.08%
Clc1n[nH]nc1-c1nn[nH][15n]1	inactive: -11.2%
O=P1(Nc2ccccn2)COc2ccccc2OC1	inactive: 0.46%
CCOP(=O)(Nc1ccc(C)cn1)OCC	inactive: -1.4%
CCOP(=O)(Nc1cccc2ccccc12)OCC	inactive: -4.25%
COc1cc(C2NCCC3(OCCO3)C2(C)C)cc(OC)c1OC (stereo not drawn)	inactive: -2.59%
Cc1ccc(NCCc2c([N+](=O)[O-])cc([N+](=O)[O-])cc2[N+](=O)[O-])cc1	inactive: 0.34%
Nc1cccc2c([As](=O)(O)O)cccc12	inactive: 1.87%
CCCOP(=S)(Nc1nc(N)cc(=O)[nH]1)OCCC	inactive: 10.1%
O=[As](O)(c1cccc(O)c1)c1cccc(O)c1	inactive: -2.53%
Cc1cccc(OCC(=O)OC2CN3CCC2CC3)c1 (stereo not drawn)	inactive: 0.84%
O=C(OC1CN2CCC1CC2)c1ccc(Cl)cc1 (stereo not drawn)	inactive: 4.4%
COc1cc(C(=O)NCC2(N3CCOCC3)CCCCC2)cc(Cl)c1OC(C)C	inactive: -7.17%
O=[As](O)(O)c1cccnc1	inactive: -10.5%
CCOP1(=S)c2c(C)nn(CCC#N)c2N=C(c2ccc(F)cc2)N1C (stereo not drawn)	inactive: 1.66%
O=[N+]([O-])c1ccc2c(c1)nnn2O	inactive: -2.51%
Nc1ccccc1[As](=O)(O)c1ccccc1	inactive: -8.82%
O=C(O)COc1ccc([As](=O)(O)O)cc1[N+](=O)[O-]	inactive: 5.9%
O=P(Nc1nccs1)(c1ccccc1)c1nc2ccccc2s1 (stereo not drawn)	inactive: -7.02%
O=P(Nc1nccs1)(Oc1ccccc1)Oc1ccccc1	inactive: -9.54%
CCOP1(=S)c2c(C)nn(CCC#N)c2N=C(c2ccccc2F)N1C (stereo not drawn)	inactive: -7.25%
CS(=O)(=O)c1cc([N+](=O)[O-])c2no[n+]([O-])c2c1	active: 26.1%

From PubChem BioAssay AID1515 (The Scripps Research Institute Molecular Screening Center, 2009)
